# OPERA 2.9 data: melting point values

Melting points are in °C.
"n/a" marks a cell with nothing listed here.

- NC(=O)NC(=O)CCCl [N-Carbamoyl-3-chloropropanamide]: melting point 172 °C
- Nc1ccc(N2CCNC(=O)C2)cc1 [4-(4-Aminophenyl)piperazin-2-one]: melting point 168 °C
- S=c1[nH]cccc1Cl [3-Chloropyridine-2(1H)-thione]: melting point 205 °C
- COc1cc2c(cc1C=O)OC(C)C2 (stereo unspecified) [5-methoxy-2-methyl-2,3-dihydro-1-benzofuran-6-carbaldehyde]: melting point 79 °C
- CC(C)(C)c1ccc(C=CC(=O)O)cc1 [4-tert-Butylcinnamic acid]: melting point 207 °C
- COc1ccc(NC(=O)c2ccccc2N)c(OC)c1 [2-amino-n-(2,4-dimethoxyphenyl)benzamide]: melting point 155 °C
- NNC(=O)c1ccc2c(c1)OCCO2 [2,3-dihydro-1,4-benzodioxine-6-carbohydrazide]: melting point 143 °C
- O=C(O)c1ccc(F)c(S(=O)(=O)Cl)c1 [3-(chlorosulfonyl)-4-fluorobenzoic acid]: melting point 139 °C
- O=C1C=CC(=O)N1c1cc(Cl)cc(Cl)c1 [N-(3,5-Dichlorophenyl)maleimide]: melting point 140 °C
- O=C(O)Cn1nnc2ccccc21 [Benzotriazol-1-yl-acetic acid]: melting point 211 °C
- CN(c1ccc2c(O)c(/N=N/c3ccccc3S(=O)(=O)[O-])c(S(=O)(=O)[O-])cc2c1)c1nc(Cl)nc(Nc2cccc(S(=O)(=O)[O-])c2)n1.[Na+].[Na+].[Na+]: melting point 240 °C
- N#Cc1ccccc1-c1ccccc1C(=O)O [2'-Cyano[1,1'-biphenyl]-2-carboxylic acid]: melting point 169 °C
- Nc1cc(Br)cnc1Cl [5-Bromo-2-chloropyridin-3-amine]: melting point 130.5 °C
- CCc1cc(C)cc(CC)c1Nc1ccc(Nc2c(CC)cc(C)cc2CC)c2c1C(=O)c1ccccc1C2=O: melting point 191.9 °C
- Cc1cccc(C)c1OP(=O)(Oc1ccc(-c2ccc(OP(=O)(Oc3c(C)cccc3C)Oc3c(C)cccc3C)cc2)cc1)Oc1c(C)cccc1C: melting point 184 °C
- Cc1cc(Br)c(NC(=O)CCl)c(Br)c1 [2-chloro-N-(2,6-dibromo-4-methylphenyl)acetamide]: melting point 178 °C
- c1ccc2c(c1)NCCCS2 [2,3,4,5-tetrahydro-1,5-benzothiazepine]: melting point 23 °C
- Cc1ccc(-c2cc(N)on2)cc1 [3-(4-methylphenyl)isoxazol-5-amine]: melting point 149 °C
- c1ccc(NC2CCCCC2)nc1 [N-Cyclohexylpyridin-2-amine]: melting point 124 °C
- Fc1ccc(Cn2cncn2)cc1 [1-(4-Fluorobenzyl)-1H-1,2,4-triazole]: melting point 64 °C
- O=C1CNc2ccccc2N1 [2(1H)-Quinoxalinone, 3,4-dihydro-]: melting point 120 °C
- Cc1c(C)n(Cc2ccccc2)c2ncnc(N)c12 [7-benzyl-5,6-dimethyl-7H-pyrrolo[2,3-d]pyrimidin-4-amine]: melting point 176 °C
- Cc1ccc(-n2c(C)cc(C=O)c2C)cc1 [2,5-Dimethyl-1-(4-methylphenyl)-1H-pyrrole-3-carbaldehyde]: melting point 103 °C
- COc1ccc(OC)c(-c2csc(N)n2)c1 [4-(2,5-dimethoxyphenyl)-1,3-thiazol-2-amine]: melting point 114 °C
- CCC(C)NS(=O)(=O)c1cccc(C(=O)O)c1 (stereo unspecified) [3-[(sec-butylamino)sulfonyl]benzoic acid]: melting point 156 °C
- S=c1nc(-c2ccncc2)[nH][nH]1 [1H-1,2,4-Triazole-3-thiol, 5-(4-pyridyl)-]: melting point 310 °C
- O=C(O)CCCNC(=O)c1ccc(Cl)cc1 [4-(4-Chloro-benzoylamino)-butyric acid]: melting point 109 °C
- O=C(O)c1cc(=O)c(O)c(C(=O)O)o1 [Meconic acid]: melting point 270 °C
- Cc1nsc(N)c1C(=O)O [3-Methyl-5-aminoisothiazolo-4-carboxylic acid]: melting point 159 °C
- Cc1c(C=O)cc(C#N)n1C [4-Formyl-1,5-dimethyl-1H-pyrrole-2-carbonitrile]: melting point 91 °C
- O=C(O)c1cnn(-c2ccccc2)c1 [Pyrazole-4-carboxylic acid, 1-phenyl-]: melting point 178 °C
- NS(=O)(=O)c1cc(Cl)ccc1Cl [2,5-dichlorobenzenesulfonamide]: melting point 180 °C
- COc1ccc(OCC(=O)NN)cc1 [2-(4-methoxyphenoxy)acetohydrazide]: melting point 143 °C
- CC(C)(C)NS(=O)(=O)c1cccc(N)c1 [3-Amino-N-tert-butylbenzene-1-sulfonamide]: melting point 138 °C
- CCN(Cc1ccccc1)c1ccc(C=O)cc1 [4-[Benzyl(ethyl)amino]benzaldehyde]: melting point 40 °C
- Nc1cc2c(cc1C(=O)O)OCCO2 [7-Amino-2,3-dihydro-1,4-benzodioxine-6-carboxylic acid]: melting point 190 °C
- Cc1ccccc1OCC(=O)NN [2-(2-methylphenoxy)acetohydrazide]: melting point 121 °C
- CC1CCN(Cc2ccc(N)cc2)CC1 [4-[(4-methylpiperidin-1-yl)methyl]aniline]: melting point 62 °C
- S=C1NCCO1: melting point 96 °C
- O=C(Nc1ccccc1C(=O)O)c1ccccc1 [N-Benzoylanthranilic acid]: melting point 180 °C
- Cc1ccc(C)c2[nH]c(C(=O)O)cc12 [4,7-dimethyl-1H-indole-2-carboxylic Acid]: melting point 207 °C

The 4 highest values of melting point among the entries above:

compound	name	melting point (°C)
S=c1nc(-c2ccncc2)[nH][nH]1	1H-1,2,4-Triazole-3-thiol, 5-(4-pyridyl)-	310
O=C(O)c1cc(=O)c(O)c(C(=O)O)o1	Meconic acid	270
CN(c1ccc2c(O)c(/N=N/c3ccccc3S(=O)(=O)[O-])c(S(=O)(=O)[O-])cc2c1)c1nc(Cl)nc(Nc2cccc(S(=O)(=O)[O-])c2)n1.[Na+].[Na+].[Na+]	n/a	240
O=C(O)Cn1nnc2ccccc21	Benzotriazol-1-yl-acetic acid	211

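The OPERA project collected these measurements from public sources as training and test data for property models. One number stands for a compound and property, with no spread given. Method and conditions are not stated for these values. Where a salt, mixture or single isomer is drawn, the source does not say that exactly this form was tested. Some upstream entries may be estimates or bounds without being marked so.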

From the experimental data distributed with OPERA 2.9.